Biological target: T1, MAO B (Rattus norvegicus, UniProt P19643)
T1 construct: determined in dilute rat brain homogenate; from tissue; host or cells: rat brain homogenate
Experiment: MAO B inhibition in dilute rat brain homogenate (14C substrate, 20 min at 37° C)
Assay type: biochemical
Conditions: quotient of IC50 MAO A and IC50 MAO B (selectivity for MAO B)

By UniProt entry, the sequences of proteins in these tests, tags left out.
UniProt P19643, whole entry: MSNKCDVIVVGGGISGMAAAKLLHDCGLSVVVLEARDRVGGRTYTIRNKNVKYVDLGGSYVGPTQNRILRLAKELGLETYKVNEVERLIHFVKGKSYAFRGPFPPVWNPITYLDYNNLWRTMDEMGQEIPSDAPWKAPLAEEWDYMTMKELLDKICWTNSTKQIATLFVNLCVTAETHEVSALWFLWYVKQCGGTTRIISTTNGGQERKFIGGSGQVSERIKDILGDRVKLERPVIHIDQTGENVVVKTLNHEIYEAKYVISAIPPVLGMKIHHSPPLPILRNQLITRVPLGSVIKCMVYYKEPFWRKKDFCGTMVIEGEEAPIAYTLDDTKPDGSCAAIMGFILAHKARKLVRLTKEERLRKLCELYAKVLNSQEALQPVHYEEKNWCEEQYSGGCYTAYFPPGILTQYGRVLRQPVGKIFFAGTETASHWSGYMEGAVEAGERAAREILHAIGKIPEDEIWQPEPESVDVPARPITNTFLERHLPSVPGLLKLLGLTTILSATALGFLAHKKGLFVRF

NCCNC(=O)c1ccc(Cl)cn1 [Ro 19-6327, reference compound]
IC50 ratio MAO A / MAO B: > 450
